# Yeast mating assay 1: variants of the scFv Ab-14

Reference: Engelhart et al. 2022, doi:10.1038/s41597-022-01779-4. File: FLAb, binding data.

The target is the same throughout: PDVDLGDISGINAS, from the HR2 region of SARS-CoV-2 spike.

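The library (AAYL50) carries one to three amino acid substitutions per variant, with no insertions or deletions. Affinity was read by AlphaSeq, a pooled yeast mating assay with surface-displayed partners. Binding brings cells together so that they mate, and sequencing counts the barcode pairs among the diploids. Read counts were normalised to the haploid input and turned into Kd by a linear fit to BCL2-family pairs of known affinity, for each replicate. There are three technical replicates.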

Ab-14 is the parent antibody, in scFv form: VH, then the linker GGGGSGGGGSGGGGS, then VL. The heavy chain is unchanged in all variants.
VH: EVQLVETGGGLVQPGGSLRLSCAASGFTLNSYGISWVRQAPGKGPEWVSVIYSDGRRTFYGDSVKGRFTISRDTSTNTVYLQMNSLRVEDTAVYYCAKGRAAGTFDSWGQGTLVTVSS
VL: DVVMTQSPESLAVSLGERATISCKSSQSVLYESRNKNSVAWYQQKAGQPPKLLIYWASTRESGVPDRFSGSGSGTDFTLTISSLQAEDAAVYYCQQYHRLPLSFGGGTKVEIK

The parent's light chain CDRs are KSSQSVLYESRNKNSVA, WASTRES, QQYHRLPLS; each variant's own CDRs replace them letter for letter. All variants listed here change T59 of the VL, counted from its first residue. Values are apparent Kd, the geometric mean of the replicates that gave a signal; lower means stronger binding. "nd" means that the variant was in the library but no mating with the target was seen in any replicate; the authors take this as a sign of poor binding, and no number exists. Entries are sorted by rising average, undetected variants last. Empty control strains, which show no peptide, gave a signal in 18% of pairings with library AAYL50; the median was 15 µM and 95% of these signals were weaker than 970 nM. No background was subtracted. The control count says in how many pairings with the empty strains this scFv gave a signal. In this assay the parent's reference entry averaged 4.4 nM; its copy inside this library read 48 nM.

Variant KSSQSVLYESRNKNSVA | AASDRES | QAYHRLPLS gave 3.7 nM (3 of 3 replicates; controls 3 of 9). With KSSQSVLYASRNANSVA | WASQRES | QQYHRLPLS the result was 4.4 nM (3 of 3 replicates; controls 4 of 9). With KSSQSVYYESRNKNSVA | WASIRES | QQYHRLPLS the result was 6.6 nM (3 of 3 replicates; controls 1 of 9). Variant KSSQSVLYESRNPNSVA | WASIRES | QQYHRTPLS gave 7.1 nM (3 of 3 replicates; controls 3 of 9). Variant KSSQSVLYEHRNKNSVA | WASIRES | QQYHRTPLS showed 8.3 nM (3 of 3 replicates; controls 0 of 9). Variant KSSQSVLYESRNKNSVA | WASNRES | QHYHRLPLM gave 11 nM (3 of 3 replicates; controls 6 of 9). For KSSQSVLYESRNGNSVA | WASIRES | QQYHRLSLS, the assay gave 11 nM (3 of 3 replicates; controls 0 of 9). With KSSQSVLYESRNKQSVA | WASKRES | QQYMRLPLS the result was 11 nM (3 of 3 replicates; controls 2 of 9). With KSSESVLKESRNKNSVA | WASQRES | QQYHRLPLS the result was 14 nM (3 of 3 replicates; controls 3 of 9).

Variant KSSQSVLSESRNKNSVA | WASCRES | QDYHRLPLS gave 64 nM (1 of 3 replicates; controls 0 of 9). Variant KSSQSVLYESRNKNSVA | WASWRES | QPYHRLPLS showed 72 nM (3 of 3 replicates; controls 4 of 9). For KSSQSVLYESRNKNSVA | WASWRES | QQYHMLPLF, the assay gave 86 nM (3 of 3 replicates; controls 1 of 9). For SSSQSVLFESRNKNSVA | WASCRES | QQYHRLPLS, the assay gave 110 nM (3 of 3 replicates; controls 0 of 9). With KSSQSVLYESANINSVA | WASKRES | QQYHRLPLS the result was 280 nM (3 of 3 replicates; controls 0 of 9). For KSSQSVLYESRNKHSVA | WASMRES | QQYHRLPLS, the assay gave 610 nM (3 of 3 replicates; controls 0 of 9). For KSSQSVLYESRCKNSVA | WASIRPS | QQYHRLPLS, the assay gave 720 nM (3 of 3 replicates; controls 1 of 9). For KSSQSVLYEQRNKNSVA | WASQRES | QAYHRLPLS, the assay gave 1.1 µM (2 of 3 replicates; controls 0 of 9). Variant KSSQSVLYESRNKNWVA | WASHRES | QQYHRLNLS gave 4.6 µM (3 of 3 replicates; controls 5 of 9).

Variant KSSQSVLYESRNKNWVA | WASDRES | QQYHRLYLS gave 7.7 µM (3 of 3 replicates; controls 4 of 9). Variant KSSQSVLYESRNKNVVN | WASSRES | QQYHRLPLS showed 14 µM (1 of 3 replicates; controls 0 of 9). With KSSQSVLYESRNKNSVA | WASARKS | QQYHELPLS the result was 16 µM (1 of 3 replicates; controls 1 of 9). For KSSQSVLYESRNKNSVA | WASHSES | QQYHRLPLC, the assay gave 21 µM (1 of 3 replicates; controls 4 of 9). Variant KSSQSVLYESRNKNSVA | WASGREP | QEYHRLPLS gave 21 µM (2 of 3 replicates; controls 1 of 9). For KSSQSVLWESRNKNSVA | WASDGES | QQYHRLPLS, the assay gave 56 µM (1 of 3 replicates; controls 4 of 9). For KSSQSTLYESRNKNSVA | WASKRES | QQSHRLPLS, the assay gave 88 µM (1 of 3 replicates; controls 3 of 9). Variant KSSQSVLYESRNYNSVA | WASMRES | QQYHRPPLS showed 420 µM (2 of 3 replicates; controls 3 of 9). For KPSQSVLYECRNKNSVA | WASGRES | QQYHRLPLS, the assay gave 2.0 mM (1 of 3 replicates; controls 2 of 9).

Variant KSSQSVLYESRNKNSVA | WASVRES | TQYHRMPLS gave nd (0 of 3 replicates; controls 0 of 9). Variant KSSQSVLYHSRNKNSVA | WASLRES | QQWHRLPLS showed nd (0 of 3 replicates; controls 1 of 9). For KSSQSPLYESRNKNSVA | DASWRES | QQYHRLPLS, the assay gave nd (0 of 3 replicates; controls 1 of 9). Variant KSSQSVLYESRNKNSVA | MASPRES | QQYHRLDLS showed nd (0 of 3 replicates; controls 0 of 9). Variant KSSQSVLYESRNRNSVD | WASFRES | QQYHRLPLS gave nd (0 of 3 replicates; controls 0 of 9). For KSSQSVLYESRNKNSPA | WASFRES | QQNHRLPLS, the assay gave nd (0 of 3 replicates; controls 0 of 9). Variant KSSQSVLYESRSKNSVA | WASFRES | QQYHRGPLS gave nd (0 of 3 replicates; controls 2 of 9). Variant KSSQSVLYESRNKNRVA | WASCRES | QQYHRLFLS showed nd (0 of 3 replicates; controls 0 of 9). For KDSQSVLYESRNKNSVA | WASGREH | QQYHRLPLS, the assay gave nd (0 of 3 replicates; controls 2 of 9).

Variant KSVQSVLYMSRNKNSVA | WASNRES | QQYHRLPLS gave nd (0 of 3 replicates; controls 1 of 9).